Binding of CDR-mutated scFvs to a peptide of the spike HR2 region

Reference: Engelhart et al. 2022, doi:10.1038/s41597-022-01779-4. File: FLAb, binding data.

The target is the same throughout: PDVDLGDISGINAS, from the HR2 region of SARS-CoV-2 spike.

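The library (AAYL49) carries one to three amino acid substitutions per variant, with no insertions or deletions. The assay is AlphaSeq: two haploid yeast populations carry antibody and antigen on their surface. Pairs that bind mate more often; barcode pairs of the diploids are counted by sequencing. Each replicate has its own calibration line, from reference interactions of the BCL2 family. There are three technical replicates.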

The variants keep the light chain, the linker and the frameworks of Ab-14 (scFv order VH, a 15-residue (Gly4Ser)3 linker, VL).
VH: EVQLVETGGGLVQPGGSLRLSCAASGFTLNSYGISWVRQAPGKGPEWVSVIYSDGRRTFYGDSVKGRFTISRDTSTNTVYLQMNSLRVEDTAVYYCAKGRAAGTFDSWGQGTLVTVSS
VL: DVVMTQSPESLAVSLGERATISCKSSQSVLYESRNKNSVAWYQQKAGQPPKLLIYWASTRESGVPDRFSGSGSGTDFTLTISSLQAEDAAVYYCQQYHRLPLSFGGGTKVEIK

Changes read parent residue, position, new residue, counted from the first residue of the VH shown.
Affinities are written as log10 Kd with Kd in nM; a lower number is a better binder.
A mean of the replicates is given; it leaves out those without a signal.
"ND" means that the variant was in the library but no mating with the target was seen in that replicate; the authors take this as a sign of poor binding, and no number exists.
Entries are sorted by rising average, undetected variants last.
Parent in this assay: reference entry 0.65, copy in this library 4.11 (one replicate of three).
Empty control strains, which show no peptide, gave a signal in 15% of pairings with library AAYL49; the median was 4.06 and 95% of these signals were weaker than 2.83. No background was subtracted.

L29R+N30Q+S63K: -0.01, 0.32, 0.07 (mean 0.13).
S31E+F59N+D62T: 1.55, 1.44, 1.58 (mean 1.52).
I51M+D62E+V64F: 2.11, 2.25, 2.00 (mean 2.12).
R56Y+F59S+K65F: 2.32, 1.93, 2.47 (mean 2.24).
L29H+S31K+D106M: ND, ND, 3.51.
S53F+G61E+A102V: 4.93, 3.19, 3.30 (mean 3.80).
R56W+V64Y: 4.34, 3.71, 3.58 (mean 3.88).
I51G+S53N+F59I: ND, ND, 4.10.
Y32G+T58Y: 4.04, 4.46, 4.69 (mean 4.39).
S53Q+R57N+T104D: 4.44, ND, ND.
A102G+F105S: 5.81, ND, 3.16 (mean 4.48).
Y52S+A102H+D106W: ND, 3.39, 5.69 (mean 4.54).
G26P+S35M+G103W: ND, 4.79, 5.14 (mean 4.97).
F27P+I34D+Y52A: ND, 4.98, ND.
F27I+I34G+I51W: 5.19, ND, ND.
S35M+S53K+V64T: ND, 4.38, 6.14 (mean 5.26).
N30P+R57H+D106G: 5.66, 4.05, 6.70 (mean 5.47).
S35G+R56A+F59H: ND, ND, ND.
G55Q+V64A+A102F: ND, ND, ND.
Y32A+S63G+K65R: ND, ND, ND.
I34S+V64D+S107H: ND, ND, ND.
L29Q+I51N+D62E: ND, ND, ND.
T28H+D54S+V64D: ND, ND, ND.
D54G+R57W+R100F: ND, ND, ND.
N30H+K65E+T104K: ND, ND, ND.
G55P+G99C+F105N: ND, ND, ND.
Y32A+R56A+A101T: ND, ND, ND.
S35Q+I51S+K65W: ND, ND, ND.
F27W+S53M+S63I: ND, ND, ND.
S35R+I51T+R57D: ND, ND, ND.
V50C+D62L+T104P: ND, ND, ND.

The 4 strongest on average among those seen in every replicate, once more:

L29R+N30Q+S63K: -0.01, 0.32, 0.07 (mean 0.13).
S31E+F59N+D62T: 1.55, 1.44, 1.58 (mean 1.52).
I51M+D62E+V64F: 2.11, 2.25, 2.00 (mean 2.12).
R56Y+F59S+K65F: 2.32, 1.93, 2.47 (mean 2.24).